Values quoted from earlier work in publication PMC10191356, “Target-agnostic drug prediction integrated with medical record analysis uncovers differential associations of statins with increased survival in COVID-19 patients” (PLOS Computational Biology, 2023).

Details: cited from earlier work

For `CC(C)c1c(C(=O)Nc2ccccc2)c(-c2ccccc2)c(-c2ccc(F)cc2)n1CC[C@@H](O)C[C@@H](O)CC(=O)O` [atorvastatin], the Active metabolites is listed as “Yes”.
